For one substance, Kd and IC50 results are on record in patent publication US20220073922A1.

Amino acid sequences for entries named in this document (tags omitted). Chains listed by the source or under a name are the forms on record and can include a tag or linker.
UniProt P15692, other isoform, or with tags, fused parts or gaps limits assumed: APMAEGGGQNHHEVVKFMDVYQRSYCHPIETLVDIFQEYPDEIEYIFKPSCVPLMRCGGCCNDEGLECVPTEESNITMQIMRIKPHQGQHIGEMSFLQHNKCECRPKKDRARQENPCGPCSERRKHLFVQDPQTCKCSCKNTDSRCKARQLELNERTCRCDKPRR

For assay [1], the target named is human VEGF-165 (human) (UniProt P15692). As to the kind of experiment: magnetic-bead partitioning binding assay read by flow cytometry; bound fraction against VEGF-165 concentration (1e-12 to about 1e-8 M), Langmuir one-site fit; how Lucentis was immobilised is not described.
Assay [2] shares this target. As to the kind of experiment: receptor competition assay: His-tagged human VEGF-165 (0.1 nM) on beads with 1 nM human VEGF Receptor 1 and varied Lucentis; bound receptor fraction by flow cytometry, dose-response inhibition fit; blocked partner: VEGF Receptor 1. On the technique in general: Flow cytometry measures light scatter and fluorescence of single cells or particles in a stream.

Assay [3] has the same target. The experiment in a line: receptor competition assay: His-tagged human VEGF-165 (0.1 nM) on beads with 1 nM human VEGF Receptor 2 and varied Lucentis; bound receptor fraction by flow cytometry, dose-response inhibition fit; blocked partner: VEGF Receptor 2.

As for Lucentis® (Fab), in the assay with human VEGF-165 (human) [1], the Kd (usually the equilibrium constant for the complex coming apart) was 2.91 nM. In addition, the IC50 (usually the concentration that gives 50% inhibition) with human VEGF-165 (human) [2] turned out to be 3.64 nM; in the assay with human VEGF-165 (human) [3], 3.62 nM.
